Calls of active or inactive are those of the source.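 The calls were made as follows: active = compounds graded as giving a low, moderate or strong rise in tritium labelling of cell protein versus solvent control; inactive = the rest.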
Tested on: HeLa cells, 3H-mannose incorporation into glycoproteins
Assay: increase in 3H-mannose incorporation into HeLa proteins, late-stage follow-up, orthogonal assay for PMI inhibitor project, HeLa cells (AID 1553);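 also: 1 fold = DMSO treated HeLa control cells; higher fold signals phosphomannose isomerase inhibition routing mannose into glycosylation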

## CN(C)C(=O)c1cccc(-n2sc3ccccc3c2=O)c1
At 100 µM
  fold increase 3H incorporation: inactive: 0.8
Fold increase, at 25 µM, stronger effect = higher value
  fold increase 3H incorporation: 1

Source: PubChem BioAssay AID1553 (Sanford-Burnham Center for Chemical Genomics, 2009)
